The text below walks through data of BindingDB's records for PubMed 1347569 (Stanford University, 1992).

By UniProt entry, the sequences of proteins in these tests, tags left out.
UniProt P14842, whole entry: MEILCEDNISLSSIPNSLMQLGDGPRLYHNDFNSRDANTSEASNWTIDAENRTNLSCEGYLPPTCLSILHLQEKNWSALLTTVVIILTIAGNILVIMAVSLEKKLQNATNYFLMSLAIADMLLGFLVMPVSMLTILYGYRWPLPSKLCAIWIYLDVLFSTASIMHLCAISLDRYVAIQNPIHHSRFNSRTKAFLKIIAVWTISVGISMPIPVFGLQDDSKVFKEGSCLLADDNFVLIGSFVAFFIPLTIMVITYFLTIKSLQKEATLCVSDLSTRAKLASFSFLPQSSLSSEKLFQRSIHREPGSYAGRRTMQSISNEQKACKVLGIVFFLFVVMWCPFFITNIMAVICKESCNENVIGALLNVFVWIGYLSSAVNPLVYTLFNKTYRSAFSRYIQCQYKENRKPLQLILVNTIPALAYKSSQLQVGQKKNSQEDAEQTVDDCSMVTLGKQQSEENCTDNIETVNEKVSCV

The target of test [1] is 5-hydroxytryptamine receptor 2A (Rattus norvegicus, UniProt P14842).
In test [2] the target is T1, 5-hydroxytryptamine receptor 2C (Rattus norvegicus, UniProt P08909).
T1 sequence (P08909 whole entry): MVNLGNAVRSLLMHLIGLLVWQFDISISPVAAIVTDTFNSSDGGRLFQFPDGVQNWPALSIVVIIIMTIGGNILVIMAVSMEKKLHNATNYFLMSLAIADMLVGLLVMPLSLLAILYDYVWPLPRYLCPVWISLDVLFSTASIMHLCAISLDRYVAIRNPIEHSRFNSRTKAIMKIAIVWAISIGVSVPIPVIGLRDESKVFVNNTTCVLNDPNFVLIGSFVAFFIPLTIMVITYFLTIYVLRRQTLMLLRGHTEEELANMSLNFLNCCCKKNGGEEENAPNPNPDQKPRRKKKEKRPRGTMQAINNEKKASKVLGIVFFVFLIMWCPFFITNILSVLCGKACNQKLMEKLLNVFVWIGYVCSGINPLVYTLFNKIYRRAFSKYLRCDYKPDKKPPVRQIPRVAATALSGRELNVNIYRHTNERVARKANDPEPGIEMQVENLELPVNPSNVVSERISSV

Molecule `CC1CCN(CCCC(=O)c2ccc(F)cc2)CC1` [CAS_3575-80-2] returned a Ki in test [1] of 31.6 nM.

With `Cc1nc2sccn2c(=O)c1CCN1CCC(=C(c2ccc(F)cc2)c2ccc(F)cc2)CC1`, the figures for the Ki in test [1] and in test [2] were 3.8 nM and 2.7 nM, respectively.

With `CN1CCN(CC/C=C2/c3ccccc3Sc3ccc(S(=O)(=O)N(C)C)cc32)CC1` [MLS000028463], the Ki in test [1] stood at 50 nM.

On to `CN1C[C@@H](NS(=O)(=O)N(C)C)C[C@@H]2c3cccc4c3c(cn4C)C[C@H]21` [MESULERGINE], for which, in test [2], the affinity, expressed as Ki, was 3 nM.

What is called Ki is a dissociation constant, usually derived from enzyme kinetics or from competition with a known ligand. A low value points to higher affinity.
